The values that follow are results of earlier work, collected in paper PMC6718736, “Validation of in vitro methods for human cytochrome P450 enzyme induction: Outcome of a multi-laboratory study” (Toxicology in Vitro, 2019).

Each structure is given as a SMILES string.

This series concerns CYP. The note with it: CYP isoforms induced; ref Abadie et al. (2009), Richert et al. (2010), Preissner et al. (2010), Hoffmann et al. (2014); cited from earlier work.

In the case of `CO[C@H]1/C=C/O[C@@]2(C)Oc3c(C)c(O)c4c(O)c(c(/C=N/N5CCN(C)CC5)c(O)c4c3C2=O)NC(=O)/C(C)=C\C=C\[C@H](C)[C@H](O)[C@@H](C)[C@@H](O)[C@@H](C)[C@H](OC(C)=O)[C@@H]1C` [Rifampicin], the “CYP induction in vitro (human hepatocytes)” value was “CYP1A2, CYP2B6, CYP3A4”.
